According to US20090270438A1, “Novel compositions and formulations” (priority 2006, published 2009):

Assay: Solubility in water or ethanol
Details: at concentrations of 4 and 8% w/v

## buprenorphine hydrochloride
  solubility in water or ethanol: not proved soluble
